The test system of the assay is SW620 human colon carcinoma xenograft. Kind of assay: In vivo antitumor efficacy with temozolomide, SW620 xenograft. The settings on record: 10 mg/kg compound alone QD×5.

Here are results for 1 compound from patent publication US20060074073A1, “Therapeutic combinations comprising poly (ADP-ribose) polymerases inhibitor” (AGOURON PHARMACEUTICALS, INC., priority 2004, published 2006).

`CNCc1ccc(-c2[nH]c3cc(F)cc4c3c2CCNC4=O)cc1` [compound of formula 1, 8-fluoro-2-{4-[(methylamino)methyl]phenyl}-1,3,4,5-tetrahydro-6H-azepino[5,4,3-cd]indol-6-one]: the tumor growth delay entry was “no tumor growth delay”.
